Values quoted from earlier work as cited in publication PMC5807066.
Where two headings read alike, the source gives them in different places.

By UniProt entry, the sequences of proteins in these tests, tags left out.
UniProt P10408, whole entry: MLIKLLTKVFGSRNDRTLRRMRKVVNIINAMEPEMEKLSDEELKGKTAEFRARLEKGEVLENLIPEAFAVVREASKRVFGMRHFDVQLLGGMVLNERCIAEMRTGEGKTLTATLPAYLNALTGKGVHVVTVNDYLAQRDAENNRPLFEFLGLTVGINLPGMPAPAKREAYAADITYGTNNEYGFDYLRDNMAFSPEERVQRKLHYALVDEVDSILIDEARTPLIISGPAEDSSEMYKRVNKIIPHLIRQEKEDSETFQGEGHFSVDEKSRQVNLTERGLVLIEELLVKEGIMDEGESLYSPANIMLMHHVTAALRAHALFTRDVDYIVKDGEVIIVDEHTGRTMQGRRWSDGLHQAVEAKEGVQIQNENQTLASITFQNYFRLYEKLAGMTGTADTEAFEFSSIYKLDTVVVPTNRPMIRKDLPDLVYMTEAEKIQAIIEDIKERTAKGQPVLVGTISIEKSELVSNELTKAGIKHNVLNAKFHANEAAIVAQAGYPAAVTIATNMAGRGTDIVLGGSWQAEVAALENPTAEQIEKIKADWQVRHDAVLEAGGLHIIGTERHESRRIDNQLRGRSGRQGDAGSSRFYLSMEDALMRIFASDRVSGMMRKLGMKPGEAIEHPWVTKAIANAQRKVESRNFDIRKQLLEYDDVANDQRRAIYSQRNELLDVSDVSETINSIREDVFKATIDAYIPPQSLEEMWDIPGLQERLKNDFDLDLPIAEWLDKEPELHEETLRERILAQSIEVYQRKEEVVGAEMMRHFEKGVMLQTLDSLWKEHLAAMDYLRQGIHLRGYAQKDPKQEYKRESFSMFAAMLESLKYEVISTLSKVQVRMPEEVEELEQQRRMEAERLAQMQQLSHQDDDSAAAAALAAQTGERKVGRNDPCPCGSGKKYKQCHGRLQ

What was measured:
[1] = target: SecYEG (Escherichia coli) (UniProt P0AGA2)
[2] = target: SecYEG (Escherichia coli) (UniProt P0AGA2); remark: listed apart in the source

Substance	Kd [1]	Kd [2]
SecA (from UniProt P10408)	40 nM	–
SecA:SecB:precursor complex (from UniProt P10408)	–	60 nM
